Measurements reported in patent US9527840B2, “Substituted-quinoxaline-type piperidine compounds and the uses thereof” (priority 2007, dated 2016).
This is a selection: effects in other tests are not listed, and their absence says nothing.

By UniProt entry, the sequences of proteins in these tests, tags left out.
UniProt P41146, whole entry: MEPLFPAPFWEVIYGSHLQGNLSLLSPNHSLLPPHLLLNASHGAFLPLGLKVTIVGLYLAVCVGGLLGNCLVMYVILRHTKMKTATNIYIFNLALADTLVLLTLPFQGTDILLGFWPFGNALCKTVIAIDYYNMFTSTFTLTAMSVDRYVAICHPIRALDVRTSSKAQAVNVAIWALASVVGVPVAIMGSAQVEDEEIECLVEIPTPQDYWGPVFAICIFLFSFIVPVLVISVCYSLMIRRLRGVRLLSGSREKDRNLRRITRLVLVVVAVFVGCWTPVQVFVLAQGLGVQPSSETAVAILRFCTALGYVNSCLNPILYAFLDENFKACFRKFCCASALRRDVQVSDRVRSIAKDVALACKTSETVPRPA

Target: human opioid receptor-like receptor (ORL-1) (Homo sapiens, UniProt P41146)
Experiment: In vitro ORL-1 receptor binding assay ([3H]-nociceptin displacement)
Conditions: read-out: Ki [Average ± Std Deviation] ORL-1; membranes from recombinant HEK-293 cells

“1-(4-(3-(hexahydropyrrolo[3,4-c]pyrrol-2(1H)-yl)-2-oxo-3,4-dihydroquinoxalin-1(2H)-yl)piperidin-1-yl)cyclooctanecarboxamide” showed a Ki of 44.6 nM.
